From patent US12667118B2, “Compositions comprising algae and methods of using same for increasing animal product production” (BLUE OCEAN BARNS, priority 2020, dated 2026)

Key:
dairy cattle [1] = settings: cited from earlier work
dairy cattle [2] = test: Tolerability limits: intake limits of minerals for dairy cattle; format: in vivo; settings: at the maximum allowable limit

In the case of Mercury, the “Maximum Allowable Component Intake Limit per Daily kg of DM Consumption” value (dairy cattle [1]) is listed as 2 mg/kg DMI and the “Intake for a Cow Consuming 20.14 kg DM/day” value (dairy cattle [2]) is listed as 40 mg/day.
